This note sets out measurements from publication PMC5618341, “Controlled inhibition of methyltransferases using photoswitchable peptidomimetics: towards an epigenetic regulation of leukemia” (Chemical Science, 2017).

Values joined by “and” are separate entries in the source; they are usually repeats but may differ in a detail not shown here. Equal entries are not always repeated. Starred links: 1 amine or outer side, 2 acyl side, 3 side chain; linkers in the order of their positions; H or OH if unused. Non-standard residues stand in square brackets, D forms with d. Residues, ends and D or L forms follow the SMILES beside them. AMPB = O=C(c1ccc(N=Nc2ccc(CN[*:1])cc2)cc1)[*:2]; Ahx = NCCCCCC(=O)O; βAla = NCCC(=O)O

The target in this assay is T1, WDR5Δ23 (Homo sapiens, UniProt P61964).
T1 construct: His6-SUMO (N, cleaved yes); made in house; host or cells: E. coli DH5α (so in the source)
Description: Fluorescence polarization (FP)-based competitive binding assay. Particulars: peptide irradiated at 366 nm (cis isomer), 72 nM WDR5Δ23, 20 nM tracer 22; for Ki: read-out: Ki, irradiation at 366 nm (cis).

As usually defined, the IC50 is the concentration needed to halve the response being measured. The Ki is the equilibrium dissociation constant of an inhibitor or competing ligand from its target.

With `CC(C)C[C@H](NC(=O)[C@H](Cc1c[nH]cn1)NC(=O)[C@@H](NC(=O)[C@H](CCC(=O)O)NC(=O)[C@H](C)NC(=O)[C@H](CCCNC(=N)N)NC(=O)c1ccc(N=Nc2ccc(CNC(=O)[C@@H](N)CO)cc2)cc1)C(C)C)C(=O)N[C@@H](CCCNC(=N)N)C(=O)N[C@@H](CCCCN)C(=O)N[C@@H](CO)C(N)=O` [peptide 5, H2N-SXRAEVHLRKS-CONH2] (H-S[AMPB]RAEVHLRKS-NH2), the IC50 turned out to be 24900 ± 5700 nM; the Ki was 433 nM and 432 nM.
Regarding `CC(C)C[C@H](NC(=O)[C@H](Cc1c[nH]cn1)NC(=O)[C@@H](NC(=O)c1ccc(N=Nc2ccc(CNC(=O)[C@H](C)NC(=O)[C@H](CCCNC(=N)N)NC(=O)[C@H](C)NC(=O)[C@@H](N)CO)cc2)cc1)C(C)C)C(=O)N[C@@H](CCCNC(=N)N)C(=O)N[C@@H](CCCCN)C(=O)N[C@@H](CO)C(N)=O` [peptide 7, H2N-SARAXVHLRKS-CONH2] (H-SARA[AMPB]VHLRKS-NH2), the IC50 was 475 ± 88 nM and the Ki was 6.5 ± 1.4 nM.
Take `CC(C)C[C@H](NC(=O)[C@H](Cc1c[nH]cn1)NC(=O)c1ccc(N=Nc2ccc(CNC(=O)[C@H](CCC(=O)O)NC(=O)[C@H](C)NC(=O)[C@H](CCCNC(=N)N)NC(=O)[C@H](C)NC(=O)[C@@H](N)CO)cc2)cc1)C(=O)N[C@@H](CCCNC(=N)N)C(=O)N[C@@H](CCCCN)C(=O)N[C@@H](CO)C(N)=O` [peptide 8, H2N-SARAEXHLRKS-CONH2] (H-SARAE[AMPB]HLRKS-NH2): the IC50 was determined as 461 ± 140 nM and the Ki stood at 9.1 ± 2.2 nM.
The like results for `CC(C)C[C@H](NC(=O)c1ccc(N=Nc2ccc(CNC(=O)[C@@H](NC(=O)[C@H](CCC(=O)O)NC(=O)[C@H](C)NC(=O)[C@H](CCCNC(=N)N)NC(=O)[C@H](C)NC(=O)[C@@H](N)CO)C(C)C)cc2)cc1)C(=O)N[C@@H](CCCNC(=N)N)C(=O)N[C@@H](CCCCN)C(=O)N[C@@H](CO)C(N)=O` [peptide 9, H2N-SARAEVXLRKS-CONH2] (H-SARAEV[AMPB]LRKS-NH2) were, in that order, 2580 ± 23 nM and 39.7 ± 0.35 nM.
In the same order, the values of `CC(C)[C@H](NC(=O)[C@H](CCC(=O)O)NC(=O)[C@H](C)NC(=O)[C@H](CCCNC(=N)N)NC(=O)[C@H](C)NC(=O)[C@@H](N)CO)C(=O)N[C@@H](Cc1c[nH]cn1)C(=O)NCc1ccc(N=Nc2ccc(C(=O)N[C@@H](CCCNC(=N)N)C(=O)N[C@@H](CCCCN)C(=O)N[C@@H](CO)C(N)=O)cc2)cc1` [peptide 10, H2N-SARAEVHXRKS-CONH2] (H-SARAEVH[AMPB]RKS-NH2) are 1490 ± 1300 nM and 33.3 ± 4.2 nM.
As for `CC(C)C[C@H](NC(=O)[C@H](Cc1c[nH]cn1)NC(=O)[C@@H](NC(=O)[C@H](CCC(=O)O)NC(=O)[C@H](C)NC(=O)[C@H](CCCNC(=N)N)NC(=O)[C@H](C)NC(=O)[C@@H](N)CO)C(C)C)C(=O)NCc1ccc(N=Nc2ccc(C(=O)N[C@@H](CCCCN)C(=O)N[C@@H](CO)C(N)=O)cc2)cc1` [peptide 11, H2N-SARAEVHLXKS-CONH2] (H-SARAEVHL[AMPB]KS-NH2), the IC50 worked out at 4540 ± 390 nM and the Ki came to 70.4 ± 6.6 nM.
On to `CC(C)C[C@H](NC(=O)[C@H](Cc1c[nH]cn1)NC(=O)[C@@H](NC(=O)[C@H](CCC(=O)O)NC(=O)[C@H](C)NC(=O)[C@H](CCCNC(=N)N)NC(=O)[C@H](C)NC(=O)[C@@H](N)CO)C(C)C)C(=O)N[C@@H](CCCNC(=N)N)C(=O)NCc1ccc(N=Nc2ccc(C(=O)N[C@@H](CO)C(N)=O)cc2)cc1` [peptide 12, H2N-SARAEVHLRXS-CONH2] (H-SARAEVHLR[AMPB]S-NH2), for which the IC50 worked out at 2640 ± 160 nM and the Ki is 40.6 ± 2.5 nM.
`CC(C)C[C@H](NC(=O)[C@H](Cc1c[nH]cn1)NC(=O)c1ccc(N=Nc2ccc(CNC(=O)[C@H](C)NC(=O)[C@H](CCCNC(=N)N)NC(=O)[C@H](C)NC(=O)[C@@H](N)CO)cc2)cc1)C(=O)N[C@@H](CCCNC(=N)N)C(=O)N[C@@H](CCCCN)C(=O)N[C@@H](CO)C(N)=O` [peptide 13, H2N-SARAXHLRKS-CONH2] (H-SARA[AMPB]HLRKS-NH2): the IC50 is 664 ± 80 nM and the inhibitory constant (Ki) came to 9.47 ± 1.2 nM.
As for `CC(=O)N[C@@H](C)C(=O)N[C@@H](CCCNC(=N)N)C(=O)N[C@@H](C)C(=O)NCc1ccc(N=Nc2ccc(C(=O)N[C@H](C(=O)N[C@@H](Cc3c[nH]cn3)C(=O)N[C@@H](CC(C)C)C(=O)N[C@@H](CCCNC(=N)N)C(=O)N[C@@H](CCCCN)C(=O)N[C@@H](CO)C(N)=O)C(C)C)cc2)cc1` [peptide 14, Ac-ARAXVHLRKS-CONH2] (Ac-ARA[AMPB]VHLRKS-NH2), the Ki is 4.25 ± 0.83 nM.
On to `CC(=O)N[C@@H](C)C(=O)N[C@@H](CCCNC(=N)N)C(=O)N[C@H](C(=O)NCc1ccc(N=Nc2ccc(C(=O)N[C@H](C(=O)N[C@@H](Cc3ccc(O)cc3)C(N)=O)C(C)C)cc2)cc1)[C@@H](C)O` [peptide 15, Ac-ARTXVY-CONH2] (Ac-ART[AMPB]VY-NH2), for which the IC50 was determined as 185 ± 20 nM and the Ki was determined as 2.07 ± 0.24 nM.
In the same order, the values of `CC(C)C[C@H](NC(=O)[C@H](Cc1c[nH]cn1)NC(=O)[C@@H](NC(=O)c1ccc(N=Nc2ccc(CNC(=O)[C@H](C)NC(=O)[C@H](CCCNC(=N)N)NC(=O)[C@H](C)NC(=O)[C@@H](N)CO)cc2)cc1)C(C)C)C(=O)N[C@@H](CCCNC(=N)N)C(=O)N[C@@H](CCCCN)C(=O)N[C@@H](CO)C(=O)N[C@@H](CCCNC(=N)N)C(=O)N[C@@H](CCCNC(=N)N)C(=O)N[C@@H](CCCNC(=N)N)C(=O)N[C@@H](CCCNC(=N)N)C(=O)N[C@@H](CCCNC(=N)N)C(=O)N[C@@H](CCCNC(=N)N)C(=O)N[C@@H](CCCNC(=N)N)C(=O)N[C@@H](CCCNC(=N)N)C(N)=O` [peptide 16, H2N-SARA-AMPB-VHLRKS-R8-NH2] (H-SARA[AMPB]VHLRKSRRRRRRRR-NH2) are 192 ± 10 nM and 2.05 ± 0.17 nM.
The like results for `CC(C)C[C@H](NC(=O)[C@H](Cc1c[nH]cn1)NC(=O)[C@@H](NC(=O)c1ccc(N=Nc2ccc(CNC(=O)[C@H](C)NC(=O)[C@H](CCCNC(=N)N)NC(=O)[C@H](C)NC(=O)[C@@H](N)CO)cc2)cc1)C(C)C)C(=O)N[C@@H](CCCNC(=N)N)C(=O)N[C@@H](CCCCN)C(=O)N[C@@H](CO)C(=O)N[C@@H](CCCNC(=N)N)C(=O)NCCCCCC(=O)N[C@@H](CCCNC(=N)N)C(=O)N[C@@H](CCCNC(=N)N)C(=O)NCCCCCC(=O)N[C@@H](CCCNC(=N)N)C(=O)N[C@@H](CCCNC(=N)N)C(=O)NCCCCCC(=O)N[C@@H](CCCNC(=N)N)C(=O)N[C@@H](CCCNC(=N)N)C(=O)NCCCCCC(=O)N[C@@H](CCCNC(=N)N)C(=O)NCCCCCC(=O)NCCC(N)=O` [peptide 17, H2N-SARA-AMPB-VHLRKS-(RahxR)4RAhxB-NH2] (H-SARA[AMPB]VHLRKSR[Ahx]RR[Ahx]RR[Ahx]RR[Ahx]R[Ahx][βAla]-NH2) were, in that order, 227 ± 24 nM and 2.6 ± 0.36 nM.
